# Permeability data for macrocyclic peptides

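Conditions beyond the assay type are not listed; see the original paper. Other peptides of the study may be missing here. Peptides that the database sets to -10, its floor, are left out.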

PAMPA is the parallel artificial membrane permeability assay, which has no cells and reads passive diffusion.
Values are log10 P with P in cm/s, so -5 is more permeable than -7.

{"smiles": "CC(C)C[C@@H]1C(=O)N(Cc2ccccc2)CC(=O)N2CCC[C@@H]2C(=O)N[C@H](CC(C)C)C(=O)N[C@@H](Cc2ccccc2)C(=O)N2CCC[C@@H]2C(=O)N[C@@H](C)C(=O)N1C", "PAMPA (log10 cm/s)": "-5.86"}
{"smiles": "CC(C)C[C@@H]1NC(=O)[C@@H](C)N(C)C(=O)[C@H]2CCCN2C(=O)[C@H](Cc2ccccc2)NC(=O)[C@H](CC(C)C)N(C)C(=O)[C@H]2CCCN2C(=O)C[C@H](Cc2ccccc2)NC1=O", "PAMPA (log10 cm/s)": "-5.58"}
{"smiles": "CC(C)C[C@@H]1C(=O)N2CCC[C@H]2C(=O)N(C)[C@@H](CC(C)C)C(=O)N[C@@H](Cc2ccccc2)C(=O)N2CCC[C@@H]2C(=O)N(C)[C@@H](C)C(=O)N(C)[C@@H](CC(C)C)C(=O)N1C", "PAMPA (log10 cm/s)": "-4.89"}
{"smiles": "CCCN1CC(=O)N(C)[C@H](CC(C)C)C(=O)N(C)[C@@H](CC(C)C)C(=O)N2CCC[C@H]2C(=O)N[C@H](CC(C)C)C(=O)N[C@@H](Cc2ccccc2)C1=O", "PAMPA (log10 cm/s)": "-5.37"}
{"smiles": "CCCN1CC(=O)N[C@@H](CC(C)C)C(=O)N(C)[C@@H](CC(C)C)C(=O)N2CCC[C@H]2C(=O)N(C)[C@H](CC(C)C)C(=O)N[C@@H](Cc2ccccc2)C(=O)N2CCC[C@H]2C1=O", "PAMPA (log10 cm/s)": "-5.74"}
{"smiles": "CCCN1CC(=O)N[C@H](CC(C)C)C(=O)N[C@@H](CC(C)C)C(=O)N2CCC[C@H]2C(=O)N(C)[C@@H](CC(C)C)C(=O)N[C@@H](Cc2ccccc2)C(=O)N2CCC[C@H]2C1=O", "PAMPA (log10 cm/s)": "-5.52"}
{"smiles": "CCCN1CC(=O)N[C@@H](CC(C)C)C(=O)N(C)[C@H](CC(C)C)C(=O)N2CCC[C@H]2C(=O)N(C)[C@H](CC(C)C)C(=O)N[C@@H](Cc2ccccc2)C(=O)N2CCC[C@H]2C1=O", "PAMPA (log10 cm/s)": "-4.91"}
{"smiles": "CCCN1CC(=O)N[C@@H](CC(C)C)C(=O)N[C@@H](CC(C)C)C(=O)N2CCC[C@H]2C(=O)N[C@@H](CC(C)C)C(=O)N[C@@H](Cc2ccccc2)C(=O)N2CCC[C@@H]2C1=O", "PAMPA (log10 cm/s)": "-5.82"}
{"smiles": "CCCN1CC(=O)N[C@H](CC(C)C)C(=O)N(C)[C@@H](CC(C)C)C(=O)N2CCC[C@@H]2C(=O)N(Cc2ccccc2)CC(=O)N[C@@H](Cc2ccccc2)C(=O)N2CCC[C@H]2C1=O", "PAMPA (log10 cm/s)": "-5.80"}
{"smiles": "CC(C)C[C@@H]1NC(=O)[C@@H](C)N(C)C(=O)[C@@H]2CCCN2C(=O)[C@H](Cc2ccccc2)NC(=O)[C@@H](CC(C)C)NC(=O)[C@@H]2CCCN2C(=O)[C@@H](CC(C)C)N(C)C1=O", "PAMPA (log10 cm/s)": "-6.07"}
{"smiles": "CC(C)C[C@H]1NC(=O)[C@@H]2CCCN2C(=O)CN(Cc2ccccc2)C(=O)[C@@H](CC(C)C)NC(=O)[C@@H](C)NC(=O)[C@@H]2CCCN2C(=O)[C@H](Cc2ccccc2)NC1=O", "PAMPA (log10 cm/s)": "-6.44"}
{"smiles": "CC(C)C[C@@H]1NC(=O)C[C@H](Cc2ccccc2)NC(=O)[C@@H]2CCCN2C(=O)[C@H](Cc2ccccc2)NC(=O)[C@@H](CC(C)C)NC(=O)[C@@H]2CCCN2C(=O)CN(Cc2ccccc2)C1=O", "PAMPA (log10 cm/s)": "-5.68"}
{"smiles": "CC(C)C[C@@H]1NC(=O)[C@H]2CCCN2C(=O)[C@H](CC(C)C)NC(=O)[C@@H](CC(C)C)NC(=O)C[C@H](Cc2ccccc2)NC(=O)[C@H]2CCCN2C(=O)[C@H](Cc2ccccc2)NC1=O", "PAMPA (log10 cm/s)": "-5.77"}
{"smiles": "CC(C)C[C@@H]1NC(=O)[C@@H](CC(C)C)N(C)C(=O)[C@@H](C)N(C)C(=O)[C@H](Cc2ccccc2)NC(=O)[C@@H](CC(C)C)NC(=O)[C@@H]2CCCN2C1=O", "PAMPA (log10 cm/s)": "-4.97"}
{"smiles": "CC(C)C[C@@H]1NC(=O)[C@@H]2CCCN2C(=O)C[C@H](Cc2ccccc2)NC(=O)[C@@H](CC(C)C)N(C)C(=O)[C@H](C)N(C)C(=O)[C@H]2CCCN2C(=O)[C@H](Cc2ccccc2)NC1=O", "PAMPA (log10 cm/s)": "-6.19"}
{"smiles": "CCCN1CC(=O)N[C@@H](CC(C)C)C(=O)N(C)[C@H](CC(C)C)C(=O)N2CCC[C@@H]2C(=O)N[C@H](CC(C)C)C(=O)N[C@@H](Cc2ccccc2)C(=O)N2CCC[C@@H]2C1=O", "PAMPA (log10 cm/s)": "-5.33"}
{"smiles": "CC(C)C[C@@H]1C(=O)N[C@@H](Cc2ccccc2)C(=O)N2CCC[C@H]2C(=O)N[C@@H](C)C(=O)N(Cc2ccccc2)CC(=O)N[C@@H](Cc2ccccc2)CC(=O)N2CCC[C@@H]2C(=O)N1C", "PAMPA (log10 cm/s)": "-5.15"}
{"smiles": "CC(C)C[C@@H]1C(=O)N2CCC[C@H]2C(=O)N(C)[C@H](CC(C)C)C(=O)N[C@@H](Cc2ccccc2)C(=O)N[C@H](C)C(=O)N(C)[C@@H](CC(C)C)C(=O)N1C", "PAMPA (log10 cm/s)": "-5.23"}
{"smiles": "CCCN1CC(=O)N(C)[C@H](CC(C)C)C(=O)N(Cc2ccccc2)CC(=O)N2CCC[C@@H]2C(=O)N(C)[C@@H](CC(C)C)C(=O)N[C@@H](Cc2ccccc2)C1=O", "PAMPA (log10 cm/s)": "-5.59"}
{"smiles": "CC(C)C[C@@H]1NC(=O)C[C@H](Cc2ccccc2)NC(=O)[C@H](Cc2ccccc2)NC(=O)[C@@H](CC(C)C)NC(=O)[C@@H]2CCCN2C(=O)[C@@H](CC(C)C)N(C)C1=O", "PAMPA (log10 cm/s)": "-5.33"}
{"smiles": "CC(C)C[C@@H]1C(=O)N[C@H](CC(C)C)C(=O)N2CCC[C@H]2C(=O)N(C)[C@H](CC(C)C)C(=O)N[C@@H](Cc2ccccc2)C(=O)N[C@@H](Cc2ccccc2)CC(=O)N1C", "PAMPA (log10 cm/s)": "-5.11"}

Again, the 3 entries with the lowest PAMPA:

structure (SMILES)	PAMPA (log10 cm/s)
CC(C)C[C@H]1NC(=O)[C@@H]2CCCN2C(=O)CN(Cc2ccccc2)C(=O)[C@@H](CC(C)C)NC(=O)[C@@H](C)NC(=O)[C@@H]2CCCN2C(=O)[C@H](Cc2ccccc2)NC1=O	-6.44
CC(C)C[C@@H]1NC(=O)[C@@H]2CCCN2C(=O)C[C@H](Cc2ccccc2)NC(=O)[C@@H](CC(C)C)N(C)C(=O)[C@H](C)N(C)C(=O)[C@H]2CCCN2C(=O)[C@H](Cc2ccccc2)NC1=O	-6.19
CC(C)C[C@@H]1NC(=O)[C@@H](C)N(C)C(=O)[C@@H]2CCCN2C(=O)[C@H](Cc2ccccc2)NC(=O)[C@@H](CC(C)C)NC(=O)[C@@H]2CCCN2C(=O)[C@@H](CC(C)C)N(C)C1=O	-6.07

Source: CycPeptMPDB (Li et al. 2023), which took these values from Townsend et al. 2020, doi:10.26434/chemrxiv.13335941.v1.